Target: Acetylcholinesterase (Electrophorus electricus, UniProt O42275)
Assay: Enzyme Inhibition Assay
Settings: pH 8; 22 °C
Protocol: The cholinesterase assays were performed using colorimetric method reported by Ellman. […] Each inhibitor was evaluated at several concentrations in the range from 1 nM to 20 uM.

The chains behind the UniProt entries cited, without tags or fusion partners. Where a name states a change or a piece, a line headed by the entry shows the natural chain unless it says otherwise.
UniProt O42275: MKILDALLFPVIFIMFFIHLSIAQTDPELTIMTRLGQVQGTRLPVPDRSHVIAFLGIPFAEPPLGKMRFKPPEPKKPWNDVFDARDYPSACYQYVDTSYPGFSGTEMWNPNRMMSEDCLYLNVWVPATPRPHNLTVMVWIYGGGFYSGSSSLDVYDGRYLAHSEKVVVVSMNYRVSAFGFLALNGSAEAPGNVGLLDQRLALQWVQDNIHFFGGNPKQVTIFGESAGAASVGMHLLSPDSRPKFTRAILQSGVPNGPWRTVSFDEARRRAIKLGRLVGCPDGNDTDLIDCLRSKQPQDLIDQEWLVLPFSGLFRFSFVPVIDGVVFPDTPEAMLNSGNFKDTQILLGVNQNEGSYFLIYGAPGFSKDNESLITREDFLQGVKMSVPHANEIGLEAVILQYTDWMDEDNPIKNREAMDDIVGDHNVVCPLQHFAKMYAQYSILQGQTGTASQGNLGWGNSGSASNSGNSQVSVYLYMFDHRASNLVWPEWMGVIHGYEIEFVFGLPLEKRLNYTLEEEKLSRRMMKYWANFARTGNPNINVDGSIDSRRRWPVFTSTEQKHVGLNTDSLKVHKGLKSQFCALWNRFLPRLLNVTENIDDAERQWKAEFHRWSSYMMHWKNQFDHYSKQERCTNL

`COc1ccc2c3c1O[C@H]1C[C@@H](O)C=C[C@@]31CC[N+](CCCCCCCCN1C(=O)c3ccccc3C1=O)=C2` [(1S,12S,14R)-4-[8-(1,3-dioxo-2,3-dihydro-1H-isoindol-2-yl)octyl]-14-hydroxy-9-methoxy-11-oxa-4-azatetracyclo[8.6.1.0^{1,12}.0^{6,17}]heptadeca-4,6,8,10(17),15-pentaen-4-ium] gave an IC50 of 11 nM.

Reference: BindingDB's records for doi:10.1021/ja0466154 (Weizmann Institute of Science, 2004)
